{"source": "patent US20260097045A1", "about": "“ANTIMICROBIAL COMBINATIONS” (Helperby Therapeutics Limited, priority 2022, published 2026)", "system": "Methicillin-resistant Staphylococcus aureus (MRSA)", "assay": "chequerboard assay (percentage of positive control, MIC, FIC) against MRSA", "assay_type": "cell-based", "settings": "agent alone, MRSA isolate, read-out: MIC Monotherapy (X)", "description": "FICI or fractional inhibitory concentration index is the sum of the FICs of each antimicrobial when used in combination. The FIC or fractional inhibitory concentration of an antimicrobial in a combination, is the MIC of the antimicrobial in the combination divided by the MIC of the same antimicrobial when used alone. Minimum inhibitory concentrations are defined in the art as the lowest concentration of an antimicrobial that will inhibit the visible growth of a microorganism after overnight incubation.\nIn the method for a 3-mer combination, one antibiotic was “fixed” as part of a backbone whilst the two other antibiotics were varied over a doubling concentration scale beginning at the MIC (×1) for the effective dose in monotherapy against the organism being tested. The ΣFIC was then calculated as shown below. In the method for a 4-mer combination, two antibiotics were “fixed” as part of a backbone whilst the two other antibiotics were varied over a doubling concentration scale beginning at the MIC (×1) for the effective dose in monotherapy against the organism being tested. […]\nThe bacteria were obtained from Ninewells Hospital and Medical School in Dundee, Scotland. […] The bacteria were measured for OD600 and readings of <0.25 were returned to the incubator. […]\nPlates were read at OD600 in a 96-well plate reader. […]", "data": [{"smiles": "CC(C)(O/N=C(\\C(=O)N[C@@H]1C(=O)N2C(C(=O)[O-])=C(C[n+]3ccccc3)CS[C@H]12)c1csc(N)n1)C(=O)O", "note": "[Ceftazidime]", "values": [{"measurement": "MIC", "value": 32, "unit": "µg/mL"}]}]}
